Our source for the EC50, Ki and Emax values is ChEMBL document CHEMBL2163335, “Structure-functional selectivity relationship studies of β-arrestin-biased dopamine D₂ receptor agonists” (J Med Chem, 2012).

Protein sequences, listed by entry. Tags and fused reporters are not part of them.
UniProt P14416, whole entry: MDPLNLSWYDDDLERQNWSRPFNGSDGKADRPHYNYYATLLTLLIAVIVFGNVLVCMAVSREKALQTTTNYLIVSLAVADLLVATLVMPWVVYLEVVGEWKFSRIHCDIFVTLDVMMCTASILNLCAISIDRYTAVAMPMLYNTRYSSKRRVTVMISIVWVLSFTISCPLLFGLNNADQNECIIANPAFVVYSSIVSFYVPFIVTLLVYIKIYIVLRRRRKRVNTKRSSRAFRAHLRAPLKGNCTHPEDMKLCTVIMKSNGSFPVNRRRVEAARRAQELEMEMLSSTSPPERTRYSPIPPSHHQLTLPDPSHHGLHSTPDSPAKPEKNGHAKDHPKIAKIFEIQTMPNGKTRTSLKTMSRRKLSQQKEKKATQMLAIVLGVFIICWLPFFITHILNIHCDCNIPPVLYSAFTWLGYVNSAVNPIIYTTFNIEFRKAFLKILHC

For the first assay, the target named is T1, D(2) dopamine receptor (Homo sapiens, UniProt P14416).
Assay: not given
Type of assay: functional, cell-based, HTLA.
Details: not given
A word on the EC50: it is the midpoint of the concentration-response curve. Lower therefore signals an effect from little substance. As to `O=C1CCc2ccc(OCCCCN3CCN(c4cccc(Cl)c4Cl)CC3)nc2N1`, the EC50 amounted to 3.2 nM.
On the same count and under the same terms, the same measure for `Clc1cccc(N2CCCN(CCCCOc3ccc4scnc4c3)CC2)c1Cl`: 25 nM.
On the same count and under the same terms, then `O=c1[nH]c2ccc(OCCCCN3CCC(c4cccc(Cl)c4Cl)CC3)cc2[nH]1`, with 20 nM.

Another assay has as its target T1, D(2) dopamine receptor. Put plainly: biochemical. Type of assay: cell-based, CHO.
Details: not given
For orientation: Ki means a dissociation constant, usually derived from enzyme kinetics or from competition with a known ligand. A lower Ki goes with tighter binding. On to `O=C1CCc2ccc(OCCCCN3CCN(c4cccc(Cl)c4Cl)CC3)nc2N1`, for which the Ki was determined as 3.4 nM.

In a further assay the target is T1, D(2) dopamine receptor.
Assay: not given
The note with it: HTLA, 6 uM.
The term Emax denotes the maximal effect, on the per cent scale that the assay sets. The compound `O=c1[nH]c2ccc(OCCCCN3CCN(c4cccc(Cl)c4Cl)CC3)cc2[nH]1` displayed an Emax of 65%.
Same read-out and setting: the same measure for `O=C1CCc2ccc(Oc3cccc(CN4CCN(c5cccc(Cl)c5Cl)CC4)c3)cc2N1`: 57%; for `Clc1cccc(N2CCN(CCCCOc3ccc4cn[nH]c4c3)CC2)c1Cl`: 61%.
On the same count and under the same terms, then `O=C1NCCc2ccc(OCCCCN3CCN(c4cccc(Cl)c4Cl)CC3)cc21`, with 46%; and `Clc1cccc(N2CCN(CCCCOc3ccc4scnc4c3)CC2)c1Cl`, with 63%.
The same measure, in the same setting: the same measure for `O=C1CCc2ccc(Oc3ccc(CN4CCN(c5cccc(Cl)c5Cl)CC4)cc3)cc2N1`: 48%.

For another assay, the target named is T1, D(2) dopamine receptor.
Assay: not given
The settings on record: HTLA, at 6 µM.
`Clc1cccc(N2CCN(CCCOc3ccc4cn[nH]c4c3)CC2)c1Cl` had a maximal effect (Emax) of 78%.
Still for that read-out and setting: then `O=C1NCCc2ccc(OCCCN3CCCN(c4cccc(Cl)c4Cl)CC3)cc21`, with 41%; and `Clc1cccc(C2CCN(CCCOc3ccc4scnc4c3)CC2)c1Cl`, with 97%.
`Clc1cccc(N2CCN(CCCOc3ccc4scnc4c3)CC2)c1Cl` gave an Emax of 88%.
As to `O=C1CCc2ccc(OCCCCN3CCN(c4cccc(Cl)c4Cl)CC3)nc2N1`, the Emax is 73%.
The same measure, in the same setting: the same measure for `O=C1NCCc2ccc(OCCCN3CCN(c4cccc(Cl)c4Cl)CC3)cc21`: 84%.
The same measure, in the same setting: the same measure for `O=C1CCc2ccc(OCCCCN3CCCN(c4cccc(Cl)c4Cl)CC3)nc2N1`: 47%.
